Test results: patent US20080155704A1, “Methods and Compositions for Determining in vivo Activity of BiP” (King's College London, priority 2006, published 2008)

Tested on: human rheumatoid arthritis synovial membrane (RASM)
Experiment: Human RASM transplanted in SCID mice (RASM/SCID chimeric mouse)
Type: in vivo, human tissue in SCID mice
Settings: 12 days
Procedure: Small pieces of human synovial tissue from patients with rheumatoid arthritis were transplanted into SCID mice. After successful engraftment, BiP (10 μg/animal) or human serum albumin (HSA) (10 μg/animal) were administered intravenously and the tissue removed for histological testing after 12d. […] CD86, HLA-DR, TNFα and IL-6 expression was measured by immunohistology. (B) the weight of explants retrieved from the mice treated as indicated after 12d. In this experiment anti-IL-10 antibody or an isotype control antibody were administered to the mice with the BiP or HSA.
This study used the previously developed SCID-HuRAg murine model (20). Briefly, pannus tissue, consisting of the leading edge of the invading synovial membrane into articular cartilage and bone, was collected as a single mass from RA patients at the time of arthroplastic surgery with full ethical approval. A block of 4-8 mm in diameter was implanted subcutaneously into the back of 6- to 7-week-old male SCID mice (CB.17/Icr; Charles River Japan, Tokyo, Japan), which had been bred under specific pathogen-free conditions. Successful implantation of human RA tissue was assessed visually 4 weeks after implantation, after which therapeutic manipulation of the mice was undertaken. BiP (10 μg/mouse) or HSA (10 μg/mouse) was administrated by single intravenous injection. The mice were sacrificed 12 days after injection to allow removal of the implanted tissue.
The degree of synovial inflammation of the implanted tissue was assessed as previously described. The histological findings were scored according to two different scoring systems: Koizumi's (40) or Rooney's method (41).
Paraffin embedded tissue sections were used for immunostaining for CD86 and HLA-DR. Frozen tissue sections were stained for the detection of cytokines (TNF, IL-1, IL-6, and IL-10). […]
The serum levels of human IL-4, IL-6 and IL-10 were measured by a quantitative sandwich enzyme immunoassay technique (Quantikine HS, R&D systems) according to the manufacturer's instructions.

[1] = 10 μg/mouse single i.v. injection

For “human serum albumin [HSA, reference compound]”, the “human IL-6 in mouse sera” value (10 μg/mouse i.v.) was 1.9 ± 1.9 pg/mL, the “Koizumi score of synovial inflammation” value [1] was 12±2.2 and the “Rooney score of synovial inflammation” value [1] was 27±8.2.
